We go through 75 molecules from PubChem BioAssay AID493091 (Sanford-Burnham Center for Chemical Genomics, 2011).

Protein sequences, listed by entry. Tags and fused reporters are not part of them. Residues count along the entry.
UniProt Q9GZU7, 76-261 limits assumed: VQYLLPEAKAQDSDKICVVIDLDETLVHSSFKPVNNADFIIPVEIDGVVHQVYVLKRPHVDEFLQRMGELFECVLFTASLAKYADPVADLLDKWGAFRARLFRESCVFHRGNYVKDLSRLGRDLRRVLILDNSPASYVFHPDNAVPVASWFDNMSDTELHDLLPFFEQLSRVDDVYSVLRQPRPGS

Only a part is listed here, and it is no random draw. Activity calls are given as the source filed them.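 Rule for the calls: active = inhibition above about 50% at 20 µM (limit read from the data); inactive = the rest.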

In this assay the target is Carboxy-terminal domain RNA polymerase II polypeptide A small phosphatase 1 (Homo sapiens) (UniProt Q9GZU7). Put plainly: Scp-1 phosphatase inhibitors, primary screen, biochemical, colorimetric, uHTS (AID 493091).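 Note: plate controls were DMSO wells with enzyme for no effect and wells lacking enzyme for full effect.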 The following applies: Recombinant Scp1, phosphopeptide, malachite green phosphate absorbance; at 20 µM; active compounds read high. Summed up:
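System: SCP-1 catalytic domain; Reagent: Phospho 17-mer peptide substrate; Doses: one concentration, 20 µM, with 1.0% DMSO; Incubation: 45 min room-temperature reaction, 5 min colour, 30 min stabiliser; Signal: Phosphate-binding colour reagent, absorbance read at 630 nm.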
Consider `CN(C)C1(CNC(=O)c2cccc(C#N)c2)CCCCC1`, for which the inhibition (usually the drop in the measured response relative to a control, in per cent) was inactive: -5.74%. Take `CCCN1CCC(Nc2cc(OC)cc(OC)c2)CC1`: the inhibition is inactive: -10.2%. In the case of `Cc1cc(N(CCCl)CCCl)ccc1C=O`, the inhibition is inactive: -2.79%. For the molecule `c1ccc(CN2CCC(Nc3ccccc3)CC2)cc1`, the inhibition was inactive: -4.24%.

As for `N#Cc1ccc(C(=O)NCC2(N3CCCCC3)CCCCC2)cc1`, the inhibition was inactive: 1.44%. On to `CC(C)(C)OC(=O)N1CCC(N(C(=O)c2ccccc2)c2ccc(Cl)cc2)CC1`, for which the inhibition was inactive: -9.05%.

On to `O=C(OC1CN2CCC1CC2)C1c2ccccc2C=Cc2ccccc21` (stereo not given), for which the inhibition is inactive: -6.85%. To `CCc1cc(C(=O)NCC2(N3CCCCC3)CCCCC2)sc1C` belongs inactive: -6.94%. On to `CCOC(=O)N1CCC(Nc2ccc(C)cc2)CC1`, for which the inhibition was inactive: -6.01%. Take `N/C(=N\O)c1c(N)no[n+]1[O-]`: the inhibition was inactive: -9.53%. Turning to `COc1ccc(C(=O)NCC2(N3CCOCC3)CCCCC2)cc1OC`, the inhibition was inactive: -3.26%. Regarding `COc1cc(C(=O)NCC2(N3CCOCC3)CCCCC2)cc(OC)c1C`, the inhibition was inactive: -4.35%. With `O=C(NCC1(N2CCOCC2)CCCCC1)c1cc(Br)ccc1Cl`, the inhibition was inactive: 2.84%. Take `CN1CCC(Nc2ccc(Cl)cc2)CC1`: the inhibition was inactive: -3.55%.

With `COc1cccc(C(=O)N(c2cc(C)cc(C)c2)C2CCN(C(=O)OC(C)(C)C)CC2)c1`, the inhibition is inactive: -15.9%.

In the case of `COc1cc(OC)cc(C(=O)NCC2(N3CCOCC3)CCCCC2)c1`, the inhibition was inactive: -10.4%. Turning to `CCC(CO)(C(=O)OC1CN2CCC1CC2)c1ccccc1` (stereo not given), the inhibition was inactive: 1.11%. With `O=C(O)C1(Nc2ccccc2)CCN(Cc2ccccc2)CC1`, the inhibition is inactive: -11%. To `CC(C)(C)OC(=O)N1CCC(Nc2ccccc2)CC1` belongs inactive: 2.58%; to `CCCOc1ccc(C(=O)NCC2(N(C)C)CCCCC2)cc1`, inactive: -6.82%.

In the case of `CN1CCC(Nc2ccc(F)c(Cl)c2)CC1`, the inhibition is inactive: 2.4%. For `CCOc1ncccc1C(=O)NCC1(N2CCOCC2)CCCCC1`, the inhibition is inactive: -14.3%.

Consider `Cn1c(=O)[nH]cc(N(CCCl)CCCl)c1=O`, for which the inhibition was inactive: -4.68%. Consider `CN(C)c1ccc(C(=O)NCC2(N3CCCCC3)CCCCC2)cc1`, for which the inhibition was inactive: -2.65%. Regarding `O=C(NCC1(N2CCCCC2)CCCCC1)c1ccco1`, the inhibition is inactive: -3.58%. `CCN1CCC(Nc2cccc(F)c2)CC1`: the inhibition is inactive: -7.1%. Then `Cc1ccccc1NC1(C#N)CCN(Cc2ccccc2)CC1`, with inactive: -15.3%; and `Fc1ccccc1NC1CCN(Cc2ccccc2)CC1`, with inactive: -5.22%; and `Cc1ccc(C(=O)NCC2(N3CCCCC3)CCCCC2)o1`, with inactive: -0.57%.

`Cc1ccc(NC2(C#N)CCN(Cc3ccccc3)CC2)cc1`: the inhibition was inactive: 2.63%. To `CC(=O)N(c1ccccc1)C1CCNCC1` belongs inactive: -2.23%; to `COc1cc(OC)cc(C(=O)NCC2(N3CCCCC3)CCCCC2)c1`, inactive: -5.49%. Then `COc1cc(C(=O)NCC2(N(C)C)CCCCC2)ccc1OC(F)F`, with inactive: 13.5%; and `CCOC(=O)N1CCC(Nc2cccc(C)c2)CC1`, with inactive: -6.2%; and `CCOC(=O)N1CCC(Nc2ccc(F)cc2)CC1`, with inactive: -3.69%. Then `COc1ccc(NC2CCN(CCc3ccccc3)CC2)c(OC)c1`, with inactive: -6.17%; and `O=C(NCC1(N2CCCCC2)CCCCC1)c1ccc(F)cc1`, with inactive: -3.83%; and `CCCCOc1ccc(C(=O)NCC2(N3CCOCC3)CCCCC2)cc1`, with inactive: -2.34%. For the molecule `O=P1(N(CCCl)CCCl)SCCCS1`, the inhibition is inactive: -3.9%. Then `O=C1CCN(Cc2ccccc2)CC1`, with inactive: 4.1%; and `CCOc1ccc(C)cc1CN(CCCl)CCCl`, with inactive: -14.2%. For `COc1ccc(Cl)cc1C(=O)NCC1(N2CCOCC2)CCCCC1`, the inhibition was inactive: -1.73%. Take `O=C(OC1CN2CCC1CC2)C1c2ccccc2Oc2ccccc21` (stereo not given): the inhibition is inactive: -7.65%. Consider `N#CC1(Nc2ccccc2)CCN(Cc2ccccc2)CC1`, for which the inhibition is inactive: -10.9%. For `O=C(NCC1(N2CCCCC2)CCCCC1)c1ccc(Cl)s1`, the inhibition was inactive: -4.57%. For the molecule `CCOC(=O)N1CCC(Nc2ccc(OC)cc2)CC1`, the inhibition was inactive: -4.74%.

In the case of `Cc1cc(C)cc(N(C(=O)c2ccccc2)C2CCN(C(=O)OC(C)(C)C)CC2)c1`, the inhibition was inactive: -5.74%. `O=C(NCC1(N2CCCCC2)CCCCC1)c1ccc(Cl)nc1`: the inhibition was inactive: -5.8%.

For the molecule `O=C(NCC1(N2CCOCC2)CCCCC1)c1cc2ccccc2o1`, the inhibition is inactive: 3.82%. Then `Cc1cccc(NC2(C#N)CCN(Cc3ccccc3)CC2)c1`, with inactive: -0.04%; and `CSc1ccccc1C(=O)NCC1(N2CCCCC2)CCCCC1`, with inactive: -2.98%; and `COc1ccc(C(=O)NCC2(N3CCCCC3)CCCCC2)c(OC)c1OC`, with inactive: 10.6%. Turning to `CC(C)(C)OC(=O)N1CCC(N(C(=O)c2ccccc2)c2ccc(F)cc2)CC1`, the inhibition is inactive: -7.31%.

Take `COc1ccc(C(=O)NCC2(N3CCCCC3)CCCCC2)cc1`: the inhibition is inactive: 0.15%.

In the case of `O=C(NCC1(N2CCCCC2)CCCCC1)c1cccs1`, the inhibition is inactive: 14.8%. For the molecule `O=C(NCC1(N2CCCCC2)CCCCC1)c1ccc(=O)[nH]c1`, the inhibition is inactive: -4.7%.

As for `CCCOc1ccc(C(=O)NCC2(N(C)C)CCCCC2)cc1OC`, the inhibition was inactive: -1.55%. Then `O=C(NCC1(N2CCCCC2)CCCCC1)c1cncc(Br)c1`, with inactive: -2.74%; and `CN1CCC(Nc2cccc(F)c2)CC1`, with inactive: -4.37%. Turning to `O=C(NCC1(N2CCOCC2)CCCCC1)c1cc(F)c(F)cc1Cl`, the inhibition is inactive: -8.57%. In the case of `COc1cc(OC)c(C(=O)NCC2(N(C)C)CCCCC2)cc1OC`, the inhibition is inactive: -3.66%. With `CC(C)c1ccc(NC2CCN(C(=O)OC(C)(C)C)CC2)cc1`, the inhibition was inactive: -2.65%.

For `CN(C)c1cccc(C(=O)NCC2(N3CCCCC3)CCCCC2)c1`, the inhibition is inactive: -4.57%. Turning to `COc1ccc(CN(CCCl)CCCl)cc1Cl`, the inhibition is inactive: -4.45%. For `O=C(NCC1(N2CCOCC2)CCCCC1)c1cc(=O)[nH]c2ccccc12`, the inhibition is inactive: 0.47%. Turning to `COc1cc(C(=O)NCC2(N3CCCCC3)CCCCC2)ccc1OC(F)F`, the inhibition was inactive: -7.11%. To `COc1ccc(NC2CCN(C(=O)OC(C)(C)C)CC2)cc1` belongs inactive: -7.74%. For `CC(C)c1ccc(C(=O)NCC2(N3CCOCC3)CCCCC2)cc1`, the inhibition was inactive: -0.06%. In the case of `CN1CCN(CCOC(=O)C(O)(c2ccccc2)c2ccccc2)CC1`, the inhibition is inactive: -11.1%. In the case of `O=C(NCC1(N2CCCCC2)CCCCC1)c1cccc(C(F)(F)F)c1`, the inhibition was inactive: -0.76%. For the molecule `N#CC1(Nc2ccccc2)CCN(CCc2ccccc2)CC1`, the inhibition was inactive: -10.1%. With `CCN1CCC(Nc2ccc(Cl)cc2)CC1`, the inhibition was inactive: -1.18%.

Regarding `CSc1ccc(C(=O)NCC2(N3CCOCC3)CCCCC2)cc1`, the inhibition was inactive: -3.85%. Take `O=C(NCC1(N2CCCCC2)CCCCC1)c1cccc([N+](=O)[O-])c1`: the inhibition is inactive: 2.03%. Consider `O=C(NCC1(N2CCCCC2)CCCCC1)c1ccc(OC(F)F)cc1`, for which the inhibition is inactive: -5.49%.
